Test results taken from PMC6838683, “Discovery of Human Signaling Systems: Pairing Peptides to G Protein-Coupled Receptors” (Cell, 2019).

Chains of the proteins cited; added tags and fusions are not shown.
UniProt P41143, whole entry: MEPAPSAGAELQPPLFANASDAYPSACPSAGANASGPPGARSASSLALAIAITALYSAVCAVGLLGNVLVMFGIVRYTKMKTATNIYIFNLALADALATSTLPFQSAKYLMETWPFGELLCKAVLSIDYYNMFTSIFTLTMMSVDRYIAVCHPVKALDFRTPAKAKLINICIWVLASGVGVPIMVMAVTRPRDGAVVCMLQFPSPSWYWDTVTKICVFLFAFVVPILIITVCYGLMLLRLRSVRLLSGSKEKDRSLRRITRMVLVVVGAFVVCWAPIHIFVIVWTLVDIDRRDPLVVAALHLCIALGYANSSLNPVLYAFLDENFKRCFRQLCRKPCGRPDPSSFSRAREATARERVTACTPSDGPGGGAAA

Target: T1, OPRD1 (Homo sapiens, UniProt P41143)
T1 construct: host or cells: HTLA cells (HEK293-derived)
Assay: β-arrestin recruitment (Tango), known peptide receptors
Assay type: cell-based
Conditions: endogenous ligand(s) included in peptide library
Description: Supplement mmc6.xlsx, sheet "Peptide GPCR controls" | column: Confirmed?

| Substance | Confirmed? (confirmation of b-arrestin recruitment) |
| --- | --- |
| Leu-enkephalin | No |
| Dynorphin A | No |
